# Assay results published in patent publication US20160302455A1, “Methods Of Producing An Antimicrobial Solution And Methods For Reducing Bacteria On Produce And/Or Minimizing Enzymatic Browning Of Produce” (priority 2015, published 2016).
# Like-named read-outs stand apart in the source and are kept apart here. Ends that are not written are not given here.
# Experiments:
# Pseudomonas spp. [1] = details: cantaloupe, after washing; control 2.4 ± 0.3; BD = Below detection (<1 CFU/g)
# Lactic acid bacteria [2] = details: cantaloupe, after washing; control 3.0 ± 0.4
# Lactic acid bacteria [3] = details: honeydew, after washing; control 1.0 ± 0.4
# Salmonella spp. [4] = type: cell-based
# Salmonella spp. [5] = type: cell-based; remark: listed apart in the source
# L. monocytogenes = type: cell-based, Listeria monocytogenes
# [6] = test system: Aerobic, mesophilic bacteria; type: cell-based
# Pseudomonas spp. [7] = details: honeydew, after washing; control 1.4 ± 0.3
# [8] = after treatment, initial population 2.7 ± 0.22
compound,measurement,setting,value
"O=C(O)CC(O)(CC(=O)O)C(=O)O [Citric Acid (10 mM), Citric acid]",Log reduction of yeast and mold on cantaloupe rind surface,Yeast and mold; [8],(0.8) log
"O=C(O)CN(CCN(CC(=O)O)CC(=O)O)CC(=O)O [EDTA (0.02 M), ethylenediaminetetraacetic acid]",Log reduction of yeast and mold on cantaloupe rind surface,Yeast and mold; [8],(0.3) log
"C/C=C/C=C/C(=O)O [Sorbic acid (0.03%), Sorbic acid]",Log reduction of yeast and mold on cantaloupe rind surface,Yeast and mold; [8],(2.3) log
OO [hydrogen peroxide],"Population of Pseudomonas spp., whole surface",Pseudomonas spp. [1],0.6 ± 0.06C Log10 CPU/cm^2
same,"Population of lactic acid bacteria, whole surface",Lactic acid bacteria [2],0.8 ± 0.04C Log10 CPU/cm^2
same,"Population of lactic acid bacteria, whole surface",Lactic acid bacteria [3],0.3 ± 0.04B Log10 CFU/cm^2
same,"Surviving population of Salmonella spp., watermelon rind surface, Treated",Salmonella spp. [4],0.49 ± 0.10A Log10 CFU/cm^2
same,"ELR (Estimated log reduction) of Salmonella spp., cantaloupe",Salmonella spp. [5],2.5 Log10 CFU/cm^2
same,"Surviving population of Salmonella spp., cantaloupe rind surface, Treated",Salmonella spp. [5],1.89 ± 0.04A Log10 CFU/cm^2
same,"Surviving population of L. monocytogenes, watermelon rind surface, Treated",L. monocytogenes,0.42 ± 0.10A Log10 CFU/cm^2
same,"Population of aerobic, mesophilic bacteria, whole surface",[6],3.1 ± 0.13B Log10 CPU/cm^2
same,Log reduction of yeast and mold on cantaloupe rind surface,Yeast and mold; [8],(2.6) log
same,"Population of yeast and mold, whole surface","Yeast and mold; cantaloupe, after washing, control 3.0 ± 0.10",0.9 ± 0.02C Log10 CPU/cm^2
same,"Population of Pseudomonas spp., whole surface",Pseudomonas spp. [7],0.4 ± 0.06B Log10 CFU/cm^2
Sodium Lactate [Sodium Lactate (2%)],Log reduction of yeast and mold on cantaloupe rind surface,Yeast and mold,(1.5) log
"nisin (ITSISLCTPGCKTGALMGCNMKTATCHCSIHVSK; not fully specified (some residues, bridges); cysteine pairing not given here; UniProt P13068 24-57, looked up) [Nisin (30 mg; (~10 μg/ml)]",Log reduction of yeast and mold on cantaloupe rind surface,Yeast and mold,(0.9) log
